Data reported in PubChem BioAssay AID504444 (National Center for Advancing Translational Sciences (NCATS), 2011).
The list shows a part of the results, in another mix than the full data. Results filed as inconclusive are left out. The source made the active and inactive calls. Calls come from the whole dose curve; as a rule, active = well fitted inhibition curve with a large enough effect; inconclusive = small, poorly fitted or top-dose-only effect, or effect the other way; inactive = flat fitted curve, though single readings scatter.
Potency is the fitted concentration of half-maximal effect.

Assay: Nrf2 qHTS screen for inhibitors; note: nearly all actives have a fitted effect of over 60% in size
Settings: A549 ARE-Fluc reporter, luciferase luminescence, 18-24 h
Text: NIH Molecular Libraries Probe Production Network [MLPCN]
NIH Chemical Genomics Center [NCGC]
Assay Provider: Shyam Biswal, Johns Hopkins University
Nrf2 is a transcription factor that maintains cellular redox homoestasis and protects cells from xenobiotics. Nrf2 binds to the antioxidant response element (ARE) to induce gene expression of a broad spectrum of genes that encode for antioxidants. […] Finding a small molecule that act as an inhibitor of Nrf2 function would represent a novel therapeutic target that could lead to improvement in survival of patients undergoing chemo- and/or radio- therapy.
This is the Nrf2 activity measured in the luminescent read.
1. […]
A concentration-response assay was performed with A549 ARE_Fluc cells which are suspended in 5% FBS OPTI-MEM. […] The plate is then incubated at 37deg C at 5% CO2 for 30 minutes before they are read on the ViewLux (Perkin Elmer) for a fluorescent read Ex=405(10)/Em=525(10) for a 3 second exposure, 2x binning, and high gain. […] Afterwards another ViewLux read is performed using the clear filter to get a luminescent read with the settings of 40 second exposure, 2x binning, and high gain. Cytotoxicity is assessed through the first fluorescent read and then biochemical activity against Nrf2 is measured in the luminescent read.
With `N=C(N)c1ccc(OCCCCCOc2ccc(C(=N)N)cc2)cc1` the Potency was active: 7.31 µM.
For `CC[n+]1c(/C=C/N(C)c2ccccc2)oc2ccccc21`, the Potency was active: 7.31 µM.
